Results on three molecules are retold here after patent publication US3996344A, “Phenethylamine antigenic conjugates, their preparation, antibodies and use” (Biological Developments, Inc., priority 1974, dated 1976).

This experiment has as its system antiserum (to the material produced according to Example 2b, p-succinyl-amphetamine coupled to thyroglobulin). Description: Radioimmune assay: inhibition of 3H-d-amphetamine binding to, and cross-reactivity of, antiserum to the material produced according to Example 2b. Conditions: antiserum to Example 2b material; for Percent Cross-Reactivity: method of Abraham, relative quantity that produces 50% inhibition x 100, d-amphetamine = 100.

Regarding `C[C@@H](N)Cc1ccccc1` [1-amphetamine], the “Percent Cross-Reactivity” value stood at 3.8%.

In the case of `C[C@H](N)Cc1ccccc1` [d-amphetamine], the “Percent Cross-Reactivity” value is 100%. In addition, the “Percent Inhibition of Binding 3H-d-amphetamine” value (“Percent Inhibition” for short) (10 picograms of unlabeled amphetamine) stood at 13%. The “Percent Inhibition” value (100 picograms of unlabeled amphetamine) turned out to be 27%. Besides, under “1,000 picograms of unlabeled amphetamine”, the “Percent Inhibition” value is given as 37%. Besides, the “Percent Inhibition” value (10,000 picograms of unlabeled amphetamine) is 65%.

Regarding `CN[C@@H](C)Cc1ccccc1` [methadrine], the “Percent Cross-Reactivity” value was determined as 3.3%.
